# Source: US20050084916A1, “Identification of the IkappaBNS protein and its products” (priority 2001, published 2005)
# Test system: DP thymocytes
# Experiment: Antisense oligonucleotide blockade of VSV8-induced negative selection in FTOC (FACS)
# Conditions: then VSV8 for 4 h; for percentage of DP thymocytes: oligonucleotide 200 μg/ml for 12-19 h, VSV8 alone 22%, control 57%; for effect on the antigen-induced loss of thymocytes: oligonucleotide 200 μg/ml, absolute cell numbers
substance,measurement,value
5′AGAGTCCTCCATCACCAGGGG3′,percentage of DP thymocytes,52%
same,effect on the antigen-induced loss of thymocytes,almost completely blocks
5′CCCCTGGTGATGGAGGACTCT3′,percentage of DP thymocytes,21%
same,effect on the antigen-induced loss of thymocytes,no effect
